{"source": "patent US11376580B2", "about": "“Methods and systems comprising modified pipettes for transferring and preserving biomaterial” (UNIVERSITY OF PITTSBURGH—OF THE COMMONWEALTH SYSTEM OF …, priority 2017, dated 2022)", "system": "HEK293 cells", "note": "Like-named read-outs stand apart in the source and are kept apart here.", "data": [{"smiles": "O=[N+]([O-])c1ccc(O)cc1", "note": "[4-Nitrophenol, 4-Nitrophenol]", "values": [{"measurement": "HEK293 cytotoxicity co-cultured with BioActivator (in words)", "value": "increased"}, {"measurement": "HEK293 cytotoxicity co-cultured with BioActivator (in words)", "setting": "human", "value": "measurable LC50 responses"}]}]}
